Columns and labels:
Nucleic Acid [1] = experiment: Binding affinity to DNA assessed as change in melting temperature in presence of 30 mM NaCl
Nucleic Acid [2] = experiment: Binding affinity to RNA assessed as change in melting temperature in presence of 120 mM NaCl
Nucleic Acid [3] = experiment: Binding affinity to RNA assessed as change in melting temperature in presence of 30 mM NaCl
Nucleic Acid [4] = experiment: Binding affinity to DNA assessed as change in melting temperature in presence of 120 mM NaCl

Row | Structure (SMILES) | ΔTm (Nucleic Acid [1]) [°C] | ΔTm (Nucleic Acid [2]) [°C] | ΔTm (Nucleic Acid [3]) [°C] | ΔTm (Nucleic Acid [4]) [°C]
1 | Cc1cn([C@@H]2O[C@@]3(COP(=O)(O)O[C@H]4C[C@H](n5cnc6c(N)ncnc65)O[C@@H]4COP(=O)(O)O[C@H]4C[C@H](n5cnc6c(=O)[nH]c(N)nc65)O[C@@H]4COP(=O)(O)O[C@H]4[C@H]5OC[C@]4(COP(=O)(O)O[C@H]4C[C@H](n6cnc7c(=O)[nH]c(N)nc76)O[C@@H]4CO)O[C@H]5n4cc(C)c(=O)[nH]c4=O)CO[C@@H]2[C@@H]3OP(=O)(O)OC[C@H]2O[C@@H](n3cnc4c(N)ncnc43)C[C@@H]2OP(=O)(O)OC[C@@]23CO[C@@H]([C@H](n4cc(C)c(=O)[nH]c4=O)O2)[C@@H]3OP(=O)(O)OC[C@H]2O[C@@H](n3cnc4c(=O)[nH]c(N)nc43)C[C@@H]2OP(=O)(O)OC[C@H]2O[C@@H](n3ccc(N)nc3=O)C[C@@H]2O)c(=O)[nH]c1=O | 14 | 26 | 20 | 15
2 | Cc1cn([C@H]2C[C@H](OP(=O)(O)OC[C@H]3O[C@@H](n4cnc5c(=O)[nH]c(N)nc54)C[C@@H]3OP(=O)(O)OC[C@H]3O[C@@H](n4ccc(N)nc4=O)C[C@@H]3O)[C@@H](COP(=O)(O)O[C@H]3C[C@H](n4cnc5c(N)ncnc54)O[C@@H]3COP(=O)(O)O[C@H]3C[C@H](n4cc(C)c(=O)[nH]c4=O)O[C@@H]3COP(=O)(O)O[C@H]3C[C@H](n4cnc5c(N)ncnc54)O[C@@H]3COP(=O)(O)O[C@H]3C[C@H](n4cnc5c(=O)[nH]c(N)nc54)O[C@@H]3COP(=O)(O)O[C@H]3C[C@H](n4cc(C)c(=O)[nH]c4=O)O[C@@H]3COP(=O)(O)O[C@H]3C[C@H](n4cnc5c(=O)[nH]c(N)nc54)O[C@@H]3CO)O2)c(=O)[nH]c1=O | 0 | 0 | 0 | 0

From ChEMBL document CHEMBL1151884, “Nuclease resistant methylphosphonate-DNA/LNA chimeric oligonucleotides” (2009)
